Data published in patent US12636270B2, “Levothyroxine liquid formulations” (Fresenius Kabi USA, LLC, priority 2016, dated 2026).

Conditions: 55° C., 4 W; NaI 280 mcg/mL, pH 9.5; 20 mcg/mL, tromethamine 10 mg/mL, 5.4 mg/mL sodium chloride in water
Protocol: Separate samples containing 20 mcg/mL levothyroxine sodium, 10 mg/mL tromethamine, 5.4 mg/mL sodium chloride, and sodium iodide at a concentration of 280 mcg/mL, 140 mcg/mL, or 6 mcg/mL in water were adjusted to various pH levels. 5 mL of each sample was filled into 10 cc flint molded vials, and the vials were stoppered with 20 mm stoppers under nitrogen.
The HPLC conditions were as follows: • Column: ACE Excel 3 C18-PFP, 4.6×150 mm HPLC column • Mobile Phase A: Sodium heptanesulfonate/Acetonitrile/Water/Methanol/H3PO4 (4.0 g/800 mL/1600 mL/1600 mL/4.0 mL) • Mobile Phase B: Sodium heptanesulfonate/Acetonitrile/Water/Methanol/H3PO4 (4.0 g/2000 mL/200 mL/1800 mL/4.0 mL) • Diluent: 0.01 N NaOH • Column temperature: 25° C. • Flow rate: 1.5 mL/min • Injection volume: 80 μL • Autosampler temperature: 5° C. • Detection: UV at 225 nm • Separation mode: Gradient Gradient Program: […]

## N[C@@H](Cc1cc(I)c(Oc2cc(I)c(O)c(I)c2)c(I)c1)C(=O)[O-].[Na+] [Levothyroxine Na, 4-(4-hydroxy-3,5-diiodophenoxy)-3,5-diiodo-L-phenylalanine sodium]
  % Liothyronine: 1.63%
